Source: patent US11820832B2, “Bispecific HER2 and CD3 binding molecules” (MEMORIAL SLOAN KETTERING CANCER CENTER, priority 2014, dated 2023)
Entries after “also recorded” stand apart in the source; their conditions may differ.

Tests used:
[1] = test system: HCC1954 breast cancer cells mixed with PBMC; assay: Xenograft, subcutaneous tumor plus subcutaneous effector cells; type: in vivo, DKO mice; settings: s.c. HCC1954 mixed with PBMC; 4 or 6 injections
[2] = test system: HCC1954 breast cancer xenografts; assay: Xenograft, subcutaneous tumor plus intravenous effector cells; type: in vivo, DKO mice; settings: s.c. HCC1954; i.v. PBMC once a week for 3 weeks; i.v. antibody twice a week for 3 weeks
[3] = test system: HeLa cervical carcinoma cells; assay: Cell proliferation assay (WST-8); type: cell-based, human; settings: 10 nM kinase inhibitors, 10 μg/mL antibodies
Experimental: (§1) Cell proliferation was determined using an ELISA plate reader and the WST-8 kit (Dojindo technologies) following the manufacturer's instructions and using the formula: % survival rate=(Sample-Background)/(Negative control-Background). Lapatinib (MSKCC pharmacy) was ground using a mortar and pestle and suspended in DMSO as previously described. To determine statistical significance, the results were analyzed using one-way ANOVA using Prism 6.0.
(§2) For cell proliferation assays, 5,000 tumor cells were plated using RPMI-1640 supplemented with 10% FBS in a 96 well plate for 36 hours before being treated with lapatinib or the antibodies at the specified concentrations. Cell proliferation was determined using an ELISA plate reader and the WST-8 kit (Dojindo technologies) following the manufacturer's instructions and using the formula: % survival rate=(Sample-Background)/(Negative control-Background). Lapatinib (Memorial Sloan Kettering Cancer Center pharmacy) was ground using a mortar and pestle and suspended in DMSO as previously described (Chen et al., 2012, Molecular cancer therapeutics 11:660-669). To determine statistical significance, the results were analyzed using one-way ANOVA using Prism 6.0.
(§3) For tumor cell proliferation, 5,000 tumor cells were plated using RPMI-1640 supplemented with 10% fetal bovine serum (“FBS”) in a 96 well plate for 36 hours before being treated with—kinase inhibitors or the antibodies at the specified concentration. Cell proliferation was determined using the cell counting WST-8 kit (Dojindo technologies) following the manufacturer's instructions and using the formula: % survival rate=(Sample-Background)/(Negative control-Background). Lapatinib was ground using a mortar and pestle and suspended in DMSO as previously described (Chen et al., Molecular cancer therapeutics 2012; 11:660-9). To determine statistical significance, the results were analyzed using one-way ANOVA using Prism 6.0.

SCCHN cell line PCI-30 = assay: Cell proliferation assay (WST-8); type: cell-based, human; settings: 10 nM kinase inhibitors, 10 μg/mL antibodies
Experimental: as §1, §2, §3

U2OS osteosarcoma cells = assay: Cell proliferation assay (WST-8); type: cell-based, human; settings: 10 nM kinase inhibitors, 10 μg/mL antibodies
Experimental: as §1, §2, §3

[4] = test system: HER2(+) SCCHN cell line PCI-13; assay: Blocking of HER2-BsAb T-cell cytotoxicity by trastuzumab or huOKT3; type: cell-based, human; settings: 0.1 μg/mL HER2-BsAb with 10 μg/mL blocking antibody
Experimental: Cell cytotoxicity was assayed by ^51Cr release as previously described (Xu et al., Cancer immunology research 2015; 3:266-77), and EC50 was calculated using SigmaPlot software. Effector PBMC cells were purified from buffy coats purchased from the New York Blood Center. ATCs were first purified from human PBMC using Pan T cell isolation kit, and then activated and expanded for approximately 14 days with CD3/CD28 Dynabeads (Invitrogen) according to manufacturer's protocol.

[5] = test system: HER2-positive breast carcinoma cell line, AU565; assay: FACS binding to tumor cells; parameters: species or system human; settings: 5 μg/mL primary antibody
[6] = test system: MCF7 breast cancer cells mixed with PBMC; assay: Xenograft, subcutaneous tumor plus subcutaneous effector cells; type: in vivo, DKO mice; settings: s.c. MCF7 mixed with PBMC; antibody i.v. twice a week for 2 or 3 weeks
[7] = test system: gastric cancer PDX (EK), IHC 2+; assay: Patient-derived xenograft, s.c. tumor plus i.v. PBMC; type: in vivo, DKO mice; settings: i.v. PBMC once a week for 3 weeks, 100 μg i.v. twice per week for 5 weeks
HER2-positive cells = assay: Blocking of HER2-BsAb induced T cell cytotoxicity; type: cell-based, human; settings: HER2-positive cells pre-incubated with blocking antibody
Experimental: The ^51Cr release assay was performed with effector T cells cultured in vitro in the presence of anti-CD3 and anti-CD28 for about 14 days. All target tumor cells were harvested with 2 mM EDTA in PBS, labeled with ^51Cr (Amersham, Arlington Height, Ill.) at 100 μCi/106 cells at 37° C. for 1 h. 5000 target cells/well were mixed with 50,000 effector cells (E:T=10:1) and BsAb antibodies in 96-well polystyrene round-bottom plates (BD Biosciences) to a final volume of 250 μl/well. The plates were incubated at 37° C. for 4 h. The released ^51Cr in supernatant was counted in a γ-counter (Packed Instrument, Downers Grove, Ill.). Percentage of specific release was calculated using the formula: (experimental cpm−background cpm)/(total cpm−background cpm)×100%, where cpm represented counts per minute of ^51Cr released. Total release was assessed by lysis with 10% SDS (Sigma, St Louis, Mo.), and background release was measured in the absence of effector cells. EC50 was calculated using SigmaPlot software.
Cell cytotoxicity was assayed by ^51Cr release as previously described (Xu et al., 2015, Cancer Immunol Res 3:266-77), and EC50 was calculated using SigmaPlot software. Effector T cells were purified from human PBMC using Pan T cell isolation kit (Miltenyi Biotec), and then activated and expanded with CD3/CD28 Dynabeads (Invitrogen) according to the manufacturer's protocol.

## HER2-C825: control BsAb lacking CD3 targeting; C825 is a murine scFv with high affinity for DOTA-metal complexes
[1]
  tumor growth: almost had no effect
[2]
  tumor growth: only modest effects

## cetuximab
[3]
  sensitivity of cells in proliferation assay: pan-resistant
SCCHN cell line PCI-30
  sensitivity of cells in proliferation assay: resistant
U2OS osteosarcoma cells
  sensitivity of cells in proliferation assay: resistant

## trastuzumab
[4]
  blocking of HER2-BsAb mediated T-cell cytotoxicity: prevented
[5]
  binding to AU565 by FACS: comparable binding
[3]
  sensitivity of cells in proliferation assay: pan-resistant
SCCHN cell line PCI-30
  sensitivity of cells in proliferation assay: resistant
U2OS osteosarcoma cells
  sensitivity of cells in proliferation assay: resistant
[6]
  tumor progression: ineffective
[1]
  tumor growth: almost had no effect
[2]
  tumor growth: only modest effects
[7]
  tumor growth: did not suppress tumor growth
HER2-positive cells
  blocking of the ability of HER2-BsAb to induce T cell cytotoxicity: blocked; also recorded: prevented
